# pKi: −log10 of the molar value. Where “and” joins values, the source holds several entries; their conditions need not be identical. Equal entries are not always repeated. Where two headings read alike, the source gives them in different places.
# Sequences of proteins named here, by UniProt entry; tags and fusion partners are left off.
# UniProt Q92731, whole entry: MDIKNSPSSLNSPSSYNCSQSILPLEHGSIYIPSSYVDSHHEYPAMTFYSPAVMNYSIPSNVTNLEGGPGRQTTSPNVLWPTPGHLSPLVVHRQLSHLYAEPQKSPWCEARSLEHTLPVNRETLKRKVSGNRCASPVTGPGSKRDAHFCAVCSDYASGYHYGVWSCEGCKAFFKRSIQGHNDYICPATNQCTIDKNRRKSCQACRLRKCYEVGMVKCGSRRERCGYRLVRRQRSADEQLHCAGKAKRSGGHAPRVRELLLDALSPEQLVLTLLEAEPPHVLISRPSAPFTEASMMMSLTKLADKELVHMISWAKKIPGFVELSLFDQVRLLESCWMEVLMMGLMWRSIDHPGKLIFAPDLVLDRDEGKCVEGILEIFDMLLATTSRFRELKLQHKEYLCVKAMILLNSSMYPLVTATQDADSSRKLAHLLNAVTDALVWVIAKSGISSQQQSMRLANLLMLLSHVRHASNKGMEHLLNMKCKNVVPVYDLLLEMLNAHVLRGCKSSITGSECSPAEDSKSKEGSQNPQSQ
# UniProt P19785, whole entry: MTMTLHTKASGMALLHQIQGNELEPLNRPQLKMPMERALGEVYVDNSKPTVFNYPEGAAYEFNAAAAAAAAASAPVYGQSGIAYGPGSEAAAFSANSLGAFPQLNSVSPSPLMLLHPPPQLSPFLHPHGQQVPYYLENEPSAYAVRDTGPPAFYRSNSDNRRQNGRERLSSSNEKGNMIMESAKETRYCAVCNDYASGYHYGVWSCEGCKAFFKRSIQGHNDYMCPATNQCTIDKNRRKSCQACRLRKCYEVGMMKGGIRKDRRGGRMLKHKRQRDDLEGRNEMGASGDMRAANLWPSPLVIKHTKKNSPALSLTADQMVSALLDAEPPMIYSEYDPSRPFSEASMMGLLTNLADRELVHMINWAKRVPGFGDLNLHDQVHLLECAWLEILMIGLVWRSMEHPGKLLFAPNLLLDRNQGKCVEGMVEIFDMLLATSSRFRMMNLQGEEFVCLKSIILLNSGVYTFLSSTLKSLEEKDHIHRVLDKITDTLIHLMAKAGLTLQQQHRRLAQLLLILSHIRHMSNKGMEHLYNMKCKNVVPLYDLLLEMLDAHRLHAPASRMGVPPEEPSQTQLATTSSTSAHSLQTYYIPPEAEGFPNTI
# UniProt P03372, whole entry: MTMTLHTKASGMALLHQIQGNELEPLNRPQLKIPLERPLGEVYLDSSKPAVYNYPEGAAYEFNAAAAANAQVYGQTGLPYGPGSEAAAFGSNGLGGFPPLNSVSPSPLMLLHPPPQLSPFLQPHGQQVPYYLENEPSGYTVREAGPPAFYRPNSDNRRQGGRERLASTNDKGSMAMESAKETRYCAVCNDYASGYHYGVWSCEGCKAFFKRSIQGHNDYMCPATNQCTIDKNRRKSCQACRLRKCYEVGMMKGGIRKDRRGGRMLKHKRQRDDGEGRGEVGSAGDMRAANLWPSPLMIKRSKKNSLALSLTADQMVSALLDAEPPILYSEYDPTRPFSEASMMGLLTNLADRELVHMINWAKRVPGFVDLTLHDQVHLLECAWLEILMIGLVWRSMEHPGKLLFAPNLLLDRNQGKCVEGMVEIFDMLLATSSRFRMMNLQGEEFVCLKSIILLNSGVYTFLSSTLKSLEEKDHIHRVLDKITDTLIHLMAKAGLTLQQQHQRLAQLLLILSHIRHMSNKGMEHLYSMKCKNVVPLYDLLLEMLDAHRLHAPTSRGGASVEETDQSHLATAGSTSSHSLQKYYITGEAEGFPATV
# UniProt O08537, whole entry: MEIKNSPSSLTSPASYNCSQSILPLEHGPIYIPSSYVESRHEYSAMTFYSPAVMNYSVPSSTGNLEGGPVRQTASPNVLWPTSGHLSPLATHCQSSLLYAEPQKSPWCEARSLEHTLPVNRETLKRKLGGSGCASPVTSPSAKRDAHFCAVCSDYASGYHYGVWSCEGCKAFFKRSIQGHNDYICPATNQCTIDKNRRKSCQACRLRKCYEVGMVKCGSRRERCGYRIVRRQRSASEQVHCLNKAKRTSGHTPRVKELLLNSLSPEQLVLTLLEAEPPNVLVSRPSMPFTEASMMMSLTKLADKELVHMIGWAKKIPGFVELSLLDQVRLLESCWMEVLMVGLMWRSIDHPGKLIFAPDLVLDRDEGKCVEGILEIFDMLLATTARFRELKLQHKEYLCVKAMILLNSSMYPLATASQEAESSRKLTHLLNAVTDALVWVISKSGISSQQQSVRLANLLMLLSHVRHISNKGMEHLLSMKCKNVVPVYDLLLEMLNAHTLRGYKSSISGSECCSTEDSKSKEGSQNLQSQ
# Key:
# [1] = Mouse PO pharmacokinetic study; conditions: absolute bioavailability
# [2] = Simulated pharmacokinetics at uterotrophic ED50 dose
# [3] = target: T1, ERβ (Homo sapiens, UniProt Q92731); assay: Estrogen receptor radioligand binding assay, hERβ; parameters: expressed in transfected cells
# Experimental: Estrogen Receptor Radio Ligand Binding Assays. […] Briefly, ERα and ERβ were obtained from recombinant insect Sf9 cells overexpressing either human receptor. [^3H] Estradiol (0.5 nM) and Diethylstilbestrol (1 μM) were used as radio-ligand and ER binding ligand positive controls, respectively. To determine the IC50, each analog was tested at several concentrations depending on the receptor being challenged. The test concentrations ranged from 1 pM-10 μM for ERβ, and 10 pM-100 μM for ERα and were performed in duplicate. The IC50 values were determined by non-linear least squares regression analysis using MathIQ™ (ID Business Solutions Ltd., UK). […] The Hill coefficients of the competition curves were calculated using MathIQ™.
# [4] = target: T1, ERβ; assay: ER luciferase transcriptional activation assay in transfected HEK-293 cells, hERβ; conditions: read-out: hERβ EC50, nM (95% CI)
# [5] = target: mouse ERα (Mus musculus, UniProt P19785); assay: ER luciferase transcriptional activation assay in transfected HEK-293 cells, mERα; conditions: read-out: mERα EC50, nM (95% CI), transactivation
# [6] = target: T2, hERα (Homo sapiens, UniProt P03372); assay: ER luciferase transcriptional activation assay in transfected HEK-293 cells, hERα; assay type: cell-based; parameters: expressed in transfected cells; host or cells: HEK-293 (CRL-1573, ATCC), transient transfection with pcDNA3-hERα and pGL4.26-3×ERE; conditions: transactivation
# [7] = target: T2, hERα; assay: Estrogen receptor radioligand binding assay, hERα; conditions: [3H]estradiol competition, recombinant human receptor from Sf9 cells
# [8] = target: mouse ERβ (Mus musculus, UniProt O08537); assay: ER luciferase transcriptional activation assay in transfected HEK-293 cells, mERβ; conditions: read-out: mERβ EC50, nM (95% CI)
# [9] = simulated at uterotrophic ED50 oral dose
substance,measurement,setting,value
"1-(4-hydroxyphenyl)-12-(phenethylthio)-1,12-dicarba-closododecaborane [Compound 5]",F (%),[1]; PO 10 mg/kg,13.5%
same,Uterotrophic ED50 AUC0-24hr,[2]; [9],2.3 µM·h
same,Uterotrophic ED50 Cmax,[2]; [9],300 nM
"1-(4-hydroxyphenyl)-12-(3-phenylpropyl)-1,12-dicarba-closododecaborane [Compound 4]",pKi,"[3]; [3H]estradiol competition, recombinant human receptor from Sf9 cells",7.90
same,EC50,"[4]; transactivation, HEK-293",97.2 nM
same,EC50,[5],124 nM
same,EC50,"[6]; read-out: hERα EC50, nM (95% CI), HEK-293",> 10000 nM
same,EC50,"[6]; read-out: hERα EC50, μM (95% CI), as listed in Tables 7A/7B",> 30000 nM
same,pKi,[7],7.66
same,EC50,"[8]; transactivation, HEK-293",70.4 nM
"1-(4-hydroxyphenyl)-7-(methylthio)-1,7-dicarba-closododecaborane [Compound 10]",Uterotrophic ED50 AUC0-24hr,[2],1.4 µM·h
same,Uterotrophic ED50 Cmax,[2],900 nM
same,Uterotrophic ED50 AUC0-24hr,[2]; [9],1.4 µM·h
"1-(4-hydroxyphenyl)-12-((2-(2-hydroxyethoxy)ethyl)thio)-1,12-dicarbaclosododecaborane [Compound 3]",F (%),[1]; PO 3 mg/kg,11.9%
same,Uterotrophic ED50 AUC0-24hr,[2]; [9],1 µM·h and 1.0 µM·h
"1-(4-hydroxyphenyl)-7-(propylthio)-1,7-dicarba-closododecaborane [Compound 7]",F (%),[1]; PO 10 mg/kg,5.5%
same,Uterotrophic ED50 AUC0-24hr,[2]; [9],2.4 µM·h
same,Uterotrophic ED50 Cmax,[2]; [9],1500 nM
"1-(4-hydroxyphenyl)-7-((2-hydroxyethyl)thio)-1,7-dicarba-closododecaborane [Compound 8]",pKi,[3],9.30
same,EC50,[4],44.9 nM
same,F (%),[1]; PO 100 mg/kg,1.2%
same,Uterotrophic ED50 AUC0-24hr,[2]; [9],>5.2 µM·h
same,Uterotrophic ED50 Cmax,[2]; [9],>1500 nM and 1500 nM
same,EC50,[8],1 nM
"1-(4-hydroxyphenyl)-12-(hexylthio)-1,12-dicarba-closododecaborane [Compound 2]",F (%),[1]; PO 10 mg/kg,41.7%
same,Uterotrophic ED50 AUC0-24hr,[2]; [9],11 µM·h
same,Uterotrophic ED50 Cmax,[2]; [9],800 nM

# Reference: US20250188098A1, “CARBORANE COMPOUNDS AND METHODS OF USE THEREOF” (Ohio State Innovation Foundation, priority 2023, published 2025)
